# According to patent US11952365B2, “Anti-viral compounds” (Aligos Therapeutics, Inc., priority 2020, dated 2024):
# Protein sequences, listed by entry. Tags and fused reporters are not part of them. Residues count along the entry.
# UniProt P03303, 1538-1719: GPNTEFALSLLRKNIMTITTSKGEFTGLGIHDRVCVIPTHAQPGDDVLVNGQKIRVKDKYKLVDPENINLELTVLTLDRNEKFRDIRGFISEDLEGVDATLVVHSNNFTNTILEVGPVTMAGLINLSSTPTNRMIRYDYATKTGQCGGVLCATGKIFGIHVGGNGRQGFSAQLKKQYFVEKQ
# Target: HRV3C (Human rhinovirus 14, UniProt P03303)
# Experiment: HRV3C protease assay (duplex, SAMDI-MS)
# Type: biochemical
# Conditions: HRV IC50, HRV3C, 30 mins preincubation, bound
# Experimental: Protease assays were performed in 384-well low volume polypropylene microtiter plates at ambient temperature. For the duplex assay, 3CLpro and HRV3C was added using a Multidrop Combi (Thermo Scientific; Waltham, MA) and preincubated for 30 mins with small molecules. The reactions were initiated by the addition of the two peptide substrates. The reactions were incubated for 30 mins and quenched by the addition of 0.5% formic acid (final) with subsequent neutralization using 1% sodium bicarbonate (final). Internal standard peptides were added in 20 mM Hepes pH 8.0 for quantitation of the protease products. […] SAMDI-MS was performed using reflector-positive mode on an AB Sciex TOF-TOF 5800 System (AB Sciex, Framingham, MA) with 400 shots/spot analyzed in a random raster sampling. For data analysis, area under the curves (peaks) (AUCs) for the product and internal standard were calculated using the TOF/TOF Series Explorer (AB Sciex), and the amount of product formed was calculated using the equation (AUC product/AUC internal standard). The amount of product generated was calculated using the ratio of product area under the curve (AUC) divided by the AUC of the internal standard. […] Assay robustness was determined by Z-Factor. The IC50s were determined by fitting the curves using a four-parameter equation in Graphpad Prism 8.
structure (smiles),measurement,value
"CS(=O)(=O)c1cccc2[nH]c(C(=O)N3C[C@@H]4CCC[C@@H]4[C@H]3C(=O)N[C@@H](C[C@@H]3CCNC3=O)C(=O)CO)cc12 [Compound 150, (1S,3aR,6aS)—N-[(2S)-4-hydroxy-3-oxo-1-[(3S)-2-oxopyrrolidin-3-yl]butan-2-yl]-2-(4-methanesulfonyl-1H-indole-2-carbonyl)-hexahydro-1H-cyclopenta[c]pyrrole-1-carboxamide]",IC50,> 10 µM
